# Earlier results in article PMC9303331, “Novel agonist and antagonist radioligands for the GLP‐2 receptor. Useful tools for studies of basic GLP‐2 receptor pharmacology” (British Journal of Pharmacology, 2022).
# Test system: dipeptidyl peptidase‐4 (DPP‐4)
# Conditions: ref Jeppesen et al., 2001; cited from earlier work
substance,measurement,value
teduglutide,resistance to DPP‐4,DPP‐4 resistant
